Laboratory results reported in US20250082635A1 (Janssen Pharmaceutica NV, priority 2023, published 2025).
Where two headings read alike, the source gives them in different places.

Columns and labels:
clinical = conditions: both, human, in vivo, po, 10 mg
[1] = for AUClast, Ratio of Geometric Means / AUC∞, Ratio of Geometric Means / Cmax, Ratio of Geometric Means / mean AUClast compared to normal hepatic function / AUClast compared to normal hepatic function, based on GMR / AUC∞ compared to normal hepatic function, based on GMR / Cmax compared to normal hepatic function, based on GMR: total; for mean AUClast compared to normal hepatic function / mean AUClast,unbound compared to normal hepatic function / mean AUC∞,unbound compared to normal hepatic function / mean Cmax,unbound compared to normal hepatic function: arithmetic means
[2] = dose normalized moderate hepatic impairment (Cohort 3) versus normal hepatic function (Cohort 1)
[3] = dose normalized moderate hepatic impairment vs normal
[4] = mild hepatic impairment (Cohort 2) versus normal hepatic function (Cohort 1)
[5] = mild hepatic impairment vs normal

AUClast, Ratio of Geometric Means [1, 2] | AUC∞, Ratio of Geometric Means [1, 2] | Cmax, Ratio of Geometric Means [1, 2] | AUClast,unbound, Ratio of Geometric Means [1, 2] | AUC∞,unbound, Ratio of Geometric Means [1, 2] | Cmax,unbound, Ratio of Geometric Means [1, 2] | mean AUClast compared to normal hepatic function [1, 3] | mean AUClast,unbound compared to normal hepatic function [1, 3] | mean AUC∞,unbound compared to normal hepatic function [1, 3] | AUClast compared to normal hepatic function, based on GMR [1, 3] | AUC∞,unbound compared to normal hepatic function, based on GMR [1, 3] | AUClast, Ratio of Geometric Means [1, 4] | AUC∞, Ratio of Geometric Means [1, 4] | Cmax, Ratio of Geometric Means [1, 4] | AUClast,unbound, Ratio of Geometric Means [1, 4] | AUC∞,unbound, Ratio of Geometric Means [1, 4] | Cmax,unbound, Ratio of Geometric Means [1, 4] | mean AUClast compared to normal hepatic function [1, 5] | mean AUClast,unbound compared to normal hepatic function [1, 5] | mean AUC∞,unbound compared to normal hepatic function [1, 5] | Compound | also measured
102.84% | 103.51% | 79.13% | 218.90% | 220.33% | 168.44% | comparable | 2.18 fold | 2.20 fold | ~1.03 fold | ~2.20 fold | 171.17% | 171.38% | 111.23% | 198.26% | 198.51% | 128.83% | 1.80 fold | 2.18 fold | 2.20 fold | Cc1cc(CO)nc(N2CC3CN(C(=O)c4c(F)cccc4-n4nccn4)CC3C2)n1 (stereo not shown) [M12] | AUC(0-inf) (clinical): 1290 ng·h/mL; AUC∞ compared to normal hepatic function, based on GMR [1, 3]: ~1.04 fold; AUClast,unbound compared to normal hepatic function, based on GMR [1, 3]: ~2.19 fold; Cmax,unbound compared to normal hepatic function, based on GMR [1, 3]: ~1.68 fold; AUClast compared to normal hepatic function, based on GMR [1, 5]: ~1.71 fold; AUC∞ compared to normal hepatic function, based on GMR [1, 5]: ~1.71 fold; AUClast,unbound compared to normal hepatic function, based on GMR [1, 5]: ~1.98 fold; Cmax,unbound compared to normal hepatic function, based on GMR [1, 5]: ~1.29 fold
79.68% | 83.00% | 64.69% | 182.46% | 190.05% | 148.13% | 0.71 fold | 1.83 fold | 1.91 fold | ~0.80 fold | ~1.90 fold | 100.62% | 99.38% | 77.40% | 124.96% | 123.42% | 96.12% | comparable | 1.36 fold | 1.35 fold | Cc1nc(N2CC3CN(C(=O)c4c(F)cccc4-n4nccn4)CC3C2)nc(C)c1O (stereo not shown) [M16] | mean Cmax,unbound compared to normal hepatic function [1, 3]: 1.58 fold; Cmax compared to normal hepatic function, based on GMR [1, 3]: approximately 0.65 fold; mean Cmax,unbound compared to normal hepatic function [1, 5]: comparable; AUClast compared to normal hepatic function, based on GMR [1, 5]: ~1.01 fold; AUC∞ compared to normal hepatic function, based on GMR [1, 5]: ~0.99 fold; Cmax compared to normal hepatic function, based on GMR [1, 5]: approximately 0.77 fold; AUC∞,unbound compared to normal hepatic function, based on GMR [1, 5]: ~1.23 fold
